# scFv variants of Ab-14 (light chain) against a SARS-CoV-2 spike peptide

Values reported by Li et al. 2023, doi:10.1038/s41467-023-39022-2 (FLAb copy).

Antigen: PDVDLGDISGINAS, a 14-residue peptide of the SARS-CoV-2 spike HR2 region.

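This is the validation round: designs drawn from the data on random variants, tested in the same kind of assay. Their group label is 14L_GP_HC (GP: Gaussian process model; HC: hill climbing; a sequence that several methods proposed may carry one label only). The assay is AlphaSeq: two haploid yeast populations carry antibody and antigen on their surface. After mating in shaken culture at 30 °C for 16 h, diploids were selected and their barcode pairs sequenced. Each replicate has its own calibration line, from reference interactions of the BCL2 family. There are six technical replicates.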

Parent scFv Ab-14: VH joined to VL by three GGGGS repeats. Changes lie in the light chain CDRs alone.
VH: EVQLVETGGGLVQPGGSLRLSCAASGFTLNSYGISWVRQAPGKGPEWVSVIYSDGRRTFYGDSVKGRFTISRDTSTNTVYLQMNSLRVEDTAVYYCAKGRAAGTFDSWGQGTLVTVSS
VL: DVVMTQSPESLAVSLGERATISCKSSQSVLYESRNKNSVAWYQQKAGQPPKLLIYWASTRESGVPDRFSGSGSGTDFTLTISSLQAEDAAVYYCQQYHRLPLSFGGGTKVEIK

Substitutions are numbered in sequence along the VL above, starting at 1 (not Kabat).
Values are log10 of the apparent Kd in nM; lower means stronger binding.
"nd" means that the variant was in the library but no mating with the target was seen in that replicate; the authors take this as a sign of poor binding, and no number exists.

| changes | log10 Kd, replicates | control signals |
|---|---|---|
| S25L S26Q S38N W56H S62D | -0.05 / 0.16 / 0.22 / 0.09 / 0.06 / 0.53 | 0/18 |
| Q27F V29Y W56E S62Q | 3.06 / 3.07 / 1.71 / 1.28 / 1.84 / 1.72 | 0/18 |
| S25V N35E W56N | 0.14 / 0.07 / -0.08 / -0.16 / -0.10 / -0.07 | 2/18 (2.79) |
| S25Q W56M H98Q | 0.53 / 0.63 / 0.71 / 0.72 / 0.73 / 0.81 | 1/18 (2.21) |
| S25Y V29W W56G | -0.22 / -0.42 / -0.54 / -0.61 / -0.50 / -0.30 | 2/18 (1.98) |
| Q27W S38N W56D | 0.09 / 0.26 / 0.10 / 0.25 / -0.10 / 0.37 | 1/18 (1.35) |
| Q27W L30P W56D | -0.29 / -0.75 / -0.59 / -0.78 / -0.69 / -0.46 | 0/18 |
| K24H S25L Q27D V29G W56N S103N | -0.03 / 0.10 / -0.06 / 0.00 / -0.12 / 0.15 | 1/18 (2.52) |
| V29W W56E S62Q | 0.25 / 0.04 / -0.12 / -0.17 / -0.08 / 0.02 | 0/18 |
| S25L S26R V29T W56A | 0.44 / 0.38 / 0.32 / 0.20 / 0.34 / 0.37 | 2/18 (3.72) |
| Q27T V29Y R34M W56E | 0.45 / 0.55 / 0.51 / 0.39 / 0.43 / 0.41 | 0/18 |
| Q27I V29Y Y31C W56E | 1.10 / 1.40 / 0.33 / 1.02 / 0.66 / 0.31 | 0/18 |
| S25F S28K L30D S33H N35T W56N | 0.27 / 0.19 / 0.09 / 0.05 / 0.14 / 0.33 | 1/18 (2.25) |
| S25M S26L S28G W56G | 0.37 / 0.00 / 0.29 / -0.18 / 0.21 / 0.23 | 0/18 |
| Q27W R34N W56H T59Q S62D | 0.52 / -0.05 / 0.02 / 0.54 / -0.20 / 0.25 | 0/18 |
| Q27I V29Y S38A W56A | 0.43 / 0.20 / 0.20 / 0.09 / 0.08 / 0.21 | 1/18 (3.35) |
| S25L S26R V29W L30N W56N Q96I | 1.19 / 0.49 / 0.80 / 0.21 / 0.33 / 1.31 | 1/18 (2.47) |
| Q27M V29Y R34M W56N A57G | 0.08 / -0.04 / -0.07 / -0.09 / -0.11 / 0.01 | 1/18 (2.95) |
| S25C W56D S103D | 0.29 / 0.26 / 1.25 / 0.78 / 0.45 / 0.71 | 1/18 (1.36) |
| S25I V29F W56G Q96A | -0.07 / -0.30 / -0.34 / -0.40 / -0.35 / 0.00 | 3/18 (2.12) |
| S25V Q27F V29Y Y31G W56E | 0.30 / 0.57 / 0.48 / 0.29 / 0.46 / 0.19 | 0/18 |
| S25F Q27P V29W N35T W56N | 0.05 / 0.00 / -0.46 / -0.85 / -0.55 / -0.34 | 0/18 |
| Q27F V29A K36E W56E S62Q | 0.41 / 0.39 / 0.11 / 0.08 / 0.05 / 0.48 | 2/18 (3.06) |
| S25L S26D V29K W56G | -0.13 / -0.21 / -0.23 / -0.37 / -0.17 / -0.25 | 0/18 |
| S25L S26R S28Q V29T S33T W56Q S62E | nd / nd / 2.28 / nd / nd / 2.13 | 0/18 |
| S25H Q27I V29Y Y31G W56E | 1.04 / 1.46 / 1.28 / 1.64 / 1.28 / 1.90 | 0/18 |
| S25H S28E V29K W56D | 0.13 / -0.11 / -0.33 / -0.19 / -0.02 / 0.11 | 1/18 (2.95) |
| S25Q S28E V29D W56D | -0.13 / -0.14 / -0.31 / -0.62 / -0.34 / -0.14 | 0/18 |
| K24H Q27P V29N W56N | 0.02 / 0.13 / 0.29 / 0.26 / -0.06 / 0.07 | 0/18 |
| S25L S26P S28G V29D W56G T59V | -0.06 / -0.39 / 0.04 / -0.33 / -0.23 / 0.26 | 1/18 (1.65) |
| Q27I V29Q R34M W56N | 0.10 / 0.03 / 0.04 / -0.02 / 0.17 / 0.17 | 1/18 (3.43) |
| S25W V29W W56G | 0.17 / -0.50 / -0.37 / -0.64 / -0.22 / -0.20 | 1/18 (2.01) |
| Q27I V29D W56E S62E | 0.46 / 0.17 / 0.07 / 0.13 / 0.13 / 0.00 | 1/18 (2.22) |
| S25F S38A W56D | -0.06 / -0.37 / -0.35 / -0.31 / -0.39 / -0.05 | 0/18 |
| L30D Y31G S33Q W56D A57I | 0.17 / -0.08 / 0.02 / -0.35 / 0.35 / -0.19 | 0/18 |
| S25M S26E S28G V29T W56G T59V | -0.23 / 0.08 / -0.39 / -0.08 / -0.18 / -0.15 | 2/18 (3.24) |
| S25F S28K S33H N35Q W56N | 0.91 / 1.08 / 0.53 / 0.45 / 0.43 / 0.56 | 0/18 |
| Q27I V29Y K36T W56E S62Q | 0.04 / -0.31 / -0.16 / -0.13 / -0.44 / 0.16 | 0/18 |
| K24N S25L V29W W56D A57G S58N | 0.11 / 0.12 / -0.30 / -0.35 / -0.25 / -0.07 | 1/18 (2.23) |
| S25L N35T W56N S58V S62T | 0.18 / -0.03 / -0.12 / -0.03 / -0.24 / 0.02 | 1/18 (2.70) |
| S25V N35D W56D E61C | -0.20 / 0.14 / 0.02 / -0.41 / -0.21 / 0.04 | 0/18 |
| Q27A V29G W56E | 0.29 / 0.03 / 0.01 / -0.17 / -0.04 / 0.17 | 0/18 |
| K24S L30P W56N S62E | 0.33 / 0.42 / 0.21 / 0.17 / 0.15 / 0.27 | 2/18 (2.54) |
| V29D K36F N37W W56G | 0.90 / 0.50 / 0.64 / 0.74 / 0.69 / 0.69 | 0/18 |
| S25V V29G Y31M W56E | -0.06 / -0.02 / -0.12 / -0.29 / -0.16 / -0.01 | 1/18 (1.57) |
| S25I V29P R34V W56D | 0.25 / 0.24 / 0.23 / 0.09 / 0.03 / 0.27 | 1/18 (3.17) |
| S26G Q27F S28G S38H W56G | 0.65 / 0.89 / 1.16 / 0.66 / 0.76 / 0.65 | 0/18 |
| S25V S26Y Q27P V29Y W56E | -0.26 / -0.19 / -0.37 / -0.46 / -0.27 / -0.26 | 0/18 |
| S25F N35F W56N S58V S62T | -0.09 / -0.28 / -0.28 / -0.43 / -0.18 / -0.09 | 3/18 (3.03) |
| Q27I V29K R34M W56E | 0.44 / -0.02 / -0.08 / 0.04 / -0.12 / 0.35 | 1/18 (2.40) |

4 of these entries, quoted again:

changes,"log10 Kd, replicates",control signals
Q27F V29Y W56E S62Q,3.06 / 3.07 / 1.71 / 1.28 / 1.84 / 1.72,0/18
Q27F V29A K36E W56E S62Q,0.41 / 0.39 / 0.11 / 0.08 / 0.05 / 0.48,2/18 (3.06)
S25L S26D V29K W56G,-0.13 / -0.21 / -0.23 / -0.37 / -0.17 / -0.25,0/18
K24S L30P W56N S62E,0.33 / 0.42 / 0.21 / 0.17 / 0.15 / 0.27,2/18 (2.54)

In the paper, a design with two or fewer of six values counts as a poor binder.
The range of this assay differs from that of the first round, and the authors advise against merging the two.
As a blank, each scFv also met three strains without target: over all light chain designs, 4% of these pairings were detected, typically at 2.64 and seldom below 1.59. Also given: how often the same scFv was detected with the empty control strains, with their mean in brackets.